Experimental data reported in patent publication US11390616B2 (BRISTOL-MYERS SQUIBB COMPANY, priority 2015, dated 2022).

Sequences of proteins named here, by UniProt entry; tags and fusion partners are left off.
UniProt P35414, whole entry: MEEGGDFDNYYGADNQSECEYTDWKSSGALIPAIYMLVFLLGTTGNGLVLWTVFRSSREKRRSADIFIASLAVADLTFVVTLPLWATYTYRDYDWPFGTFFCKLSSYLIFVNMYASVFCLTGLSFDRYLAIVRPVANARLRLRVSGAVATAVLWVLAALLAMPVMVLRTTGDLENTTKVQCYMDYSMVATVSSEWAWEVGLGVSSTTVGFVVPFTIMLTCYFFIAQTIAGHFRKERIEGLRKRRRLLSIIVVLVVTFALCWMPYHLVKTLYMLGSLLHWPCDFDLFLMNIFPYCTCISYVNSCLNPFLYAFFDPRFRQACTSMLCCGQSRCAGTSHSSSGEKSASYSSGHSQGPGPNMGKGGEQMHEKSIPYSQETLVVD

Target: APJ receptor (Homo sapiens, UniProt P35414)
Assay: Intracellular cAMP accumulation assay (APJ hcAMP, HTRF)
Conditions: read-out: APJ cAMP Potency range; HEK293 cells stably expressing human APJ receptor; inhibition of forskolin-mediated cAMP production

Work on `CCCCc1nc(O)c(Cc2ccc(-c3ncon3)cc2)c(=O)n1-c1c(OC)cccc1OC` yielded an EC50 of 0.01 to 10 nM.
